## Yeast mating assay 2: variants of the scFv Ab-91

Target peptide (SARS-CoV-2 spike, HR2 region): PDVDLGDISGINAS

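The parent was found by panning a naive human phage display library on the peptide. AAYL51 was designed without a model: most single CDR substitutions and a random sample of double and triple ones. AlphaSeq pools MATa yeast showing the antibodies with MATalpha yeast showing the peptide. Pairs that bind mate more often; barcode pairs of the diploids are counted by sequencing. Read counts were normalised to the haploid input and turned into Kd by a linear fit to BCL2-family pairs of known affinity, for each replicate. Mating was done three times.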

Parent scFv Ab-91: VL joined to VH by the linker GGGGSGGGGSGGGGS. Changes lie in the heavy chain CDRs alone.
VL: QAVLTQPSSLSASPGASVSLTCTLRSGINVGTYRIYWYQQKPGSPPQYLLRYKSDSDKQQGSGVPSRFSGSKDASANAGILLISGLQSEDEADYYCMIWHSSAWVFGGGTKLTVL
VH: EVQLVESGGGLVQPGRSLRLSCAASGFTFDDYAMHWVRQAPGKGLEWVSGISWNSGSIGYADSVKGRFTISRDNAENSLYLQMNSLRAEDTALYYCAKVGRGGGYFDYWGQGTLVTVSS

Substitutions are numbered in sequence along the VH above, starting at 1 (not Kabat). Numbers give log10(Kd / nM), so 0 is 1 nM and 3 is 1 µM. Smaller is tighter. A pair that was not seen in that replicate is written "ND"; this usually means weak binding, but a binder can also be missed.

changes | replicates, log10 nM | empty controls
A61N/V99S/G103T | 5.41 ND ND | 4 of 9 (5.05)
V99L/G104Y/Y105Q | ND ND ND | 2 of 9 (3.77)
K65E/V99F/D107V | 3.41 ND ND | 0 of 9
M34V/G102P/D107W | ND ND ND | 2 of 9 (4.03)
G26E/W53Y/V64C | ND ND ND | 0 of 9
F27Y/I51N/V64C | ND ND 4.29 | 1 of 9 (3.20)
H35D/D62L/G100Y | ND ND ND | 2 of 9 (4.40)
F27K/F106S | ND ND ND | 0 of 9
F29H/M34Q/K65W | ND ND ND | 0 of 9
I51M/G59R/Y105L | ND ND ND | 5 of 9 (4.18)
T28Y/S52P/G100S | 3.52 ND ND | 1 of 9 (3.70)
D30S/H35P/I58W | 4.21 ND ND | 3 of 9 (4.14)
H35R/S52P/S55P | 4.52 ND ND | 5 of 9 (5.17)
W53C/V99I | 1.20 1.28 0.74 | 1 of 9 (5.38)
F27L/I51S/S57G | 4.64 4.54 4.69 | 2 of 9 (4.89)
G26H | 2.60 2.68 2.69 | 9 of 9 (5.47)
G56W/V99P | 4.16 ND ND | 1 of 9 (4.29)
Y32P/S52L/Y60K | ND ND ND | 2 of 9 (4.07)
Y32K/G50N/Y105H | ND ND ND | 2 of 9 (3.76)
I51M | 2.09 2.30 2.53 | 2 of 9 (4.81)
Y32G/G104R/F106P | ND ND ND | 0 of 9
F29W/A33S/V64D | ND ND ND | 1 of 9 (3.62)
G26N/G59V/V64Y | ND 5.94 5.23 | 4 of 9 (4.58)
Y32S/I58Y/D62C | 3.11 ND 3.04 | 1 of 9 (4.20)
A33W/G59K/Y60L | ND ND ND | 1 of 9 (4.33)
I58F/G59S | 4.49 ND ND | 0 of 9
I51V/S52Y | ND ND ND | 1 of 9 (3.81)
D31H/S55Q/F106K | ND 5.12 2.92 | 0 of 9
G26A/F29S | 4.49 ND 3.78 | 3 of 9 (4.29)
S55I/S63V/G103E | ND ND 3.22 | 1 of 9 (3.19)
F29C/A33D/G102P | ND ND ND | 0 of 9
D30K/Y32E/W53F | 4.64 ND ND | 6 of 9 (4.81)
D30H/W53K | ND 4.81 ND | 3 of 9 (3.87)
D62V/S63Y/V64C | 5.35 4.18 ND | 2 of 9 (5.03)
S63Q/Y105V/F106I | 4.25 ND ND | 1 of 9 (5.65)
D31M/A61D/D107H | ND ND ND | 2 of 9 (4.18)
M34D/G50E/V64H | ND ND ND | 1 of 9 (4.53)
R101M/G102A/Y108R | ND 3.98 ND | 1 of 9 (4.39)
N54C/Y105M | ND ND ND | 1 of 9 (1.84)
F27S/H35S/G102A | ND ND ND | 0 of 9

Three control strains display no target. For library AAYL51, 21% of the pairings with them gave a signal, with a median of 4.54 and one signal in twenty below 3.26, so weak values seen in few replicates may be background. Also given: how often the same scFv was detected with the empty control strains, with their mean in brackets. In this assay the parent's reference entry averaged 1.86; its copy inside this library read 0.88.

From the AlphaSeq antibody data of Engelhart et al. 2022 (doi:10.1038/s41597-022-01779-4), copy in the FLAb collection.